Literature values as cited in patent US11896678B2, “Compositions and methods for treatment of peroxisome proliferator-activated receptor gamma (PPARG) activated cancer” (THE BROAD INSTITUTE, INC., priority 2017, dated 2024).

Test system: bladder cancer
Conditions: humans; cited from earlier work

Question: With `CN(CCOc1ccc(CC2SC(=O)NC2=O)cc1)c1ccccn1` (stereo not shown) [rosiglitazone] as the compound, how does the “risk / hazard ratio for development of bladder cancer” value read?
Answer: The value was “has not been shown to increase the hazard ratio”.
